Experimental data taken from patent US6756210B2 (dated 2004).

Sequences of proteins named here, by UniProt entry; tags and fusion partners are left off. A change or cut given only in a name is not applied to a line headed by its entry.
UniProt P80299: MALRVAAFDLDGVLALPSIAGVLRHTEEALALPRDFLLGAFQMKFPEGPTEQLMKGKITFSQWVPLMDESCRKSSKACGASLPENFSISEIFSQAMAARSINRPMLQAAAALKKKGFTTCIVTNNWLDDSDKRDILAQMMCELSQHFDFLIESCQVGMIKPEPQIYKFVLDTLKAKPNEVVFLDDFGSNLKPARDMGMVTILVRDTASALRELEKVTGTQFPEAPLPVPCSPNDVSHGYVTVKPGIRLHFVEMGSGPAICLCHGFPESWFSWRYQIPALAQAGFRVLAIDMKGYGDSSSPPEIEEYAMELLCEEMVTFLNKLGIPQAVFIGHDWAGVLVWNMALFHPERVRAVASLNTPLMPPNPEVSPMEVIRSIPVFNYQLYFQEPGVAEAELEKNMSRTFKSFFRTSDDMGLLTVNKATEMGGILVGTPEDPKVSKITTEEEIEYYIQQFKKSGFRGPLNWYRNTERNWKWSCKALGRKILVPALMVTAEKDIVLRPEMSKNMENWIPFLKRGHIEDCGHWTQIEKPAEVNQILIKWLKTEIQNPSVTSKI
UniProt P34914: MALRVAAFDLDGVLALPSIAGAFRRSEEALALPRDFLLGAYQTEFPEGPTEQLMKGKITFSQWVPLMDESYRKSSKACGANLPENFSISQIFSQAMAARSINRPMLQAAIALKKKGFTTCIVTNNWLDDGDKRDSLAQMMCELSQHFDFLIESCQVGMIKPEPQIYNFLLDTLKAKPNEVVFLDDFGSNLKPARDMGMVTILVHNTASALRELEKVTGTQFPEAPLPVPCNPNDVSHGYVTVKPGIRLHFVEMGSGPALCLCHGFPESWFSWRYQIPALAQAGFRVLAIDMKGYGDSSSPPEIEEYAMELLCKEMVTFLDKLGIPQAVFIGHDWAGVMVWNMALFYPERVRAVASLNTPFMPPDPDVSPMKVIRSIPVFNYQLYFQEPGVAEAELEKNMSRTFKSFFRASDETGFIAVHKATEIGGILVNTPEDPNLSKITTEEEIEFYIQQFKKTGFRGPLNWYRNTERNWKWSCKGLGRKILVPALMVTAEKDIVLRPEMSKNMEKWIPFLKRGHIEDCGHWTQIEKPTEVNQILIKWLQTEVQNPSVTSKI
UniProt P34913, whole entry: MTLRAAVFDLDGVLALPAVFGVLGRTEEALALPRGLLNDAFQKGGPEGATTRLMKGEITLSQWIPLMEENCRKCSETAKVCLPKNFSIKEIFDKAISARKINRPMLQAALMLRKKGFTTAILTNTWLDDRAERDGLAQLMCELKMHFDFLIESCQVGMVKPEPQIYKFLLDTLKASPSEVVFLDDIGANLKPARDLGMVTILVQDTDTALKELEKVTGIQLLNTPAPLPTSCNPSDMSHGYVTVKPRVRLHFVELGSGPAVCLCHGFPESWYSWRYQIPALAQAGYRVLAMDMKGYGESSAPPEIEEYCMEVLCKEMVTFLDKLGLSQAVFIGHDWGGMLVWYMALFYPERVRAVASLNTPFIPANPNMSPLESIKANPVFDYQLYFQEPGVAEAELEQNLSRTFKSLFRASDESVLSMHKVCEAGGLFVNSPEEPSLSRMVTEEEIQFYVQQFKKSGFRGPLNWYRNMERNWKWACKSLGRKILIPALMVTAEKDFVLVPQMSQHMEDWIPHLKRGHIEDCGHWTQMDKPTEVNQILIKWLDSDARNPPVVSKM

What was measured:
[1] = molecular target: purified recombinant rat sEH (Rattus norvegicus, UniProt P80299); assay: biochemical
[2] = molecular target: recombinant mouse sEH (MsEH) (Mus musculus, UniProt P34914); assay: Inhibition of recombinant mouse sEH (MsEH); format: biochemical
Human sEH (HsEH) = Human sEH (HsEH) (Homo sapiens, UniProt P34913); assay: Inhibition of recombinant human sEH (HsEH)

Row | SMILES | Ki [1] [nM] | IC50 [2] [nM] | IC50 (Human sEH (HsEH)) [nM]
1 | O=C(NC1CCCCC1)NC1CCCCC1 [DCU, N,N′-dicyclohexylurea] | 34 |  | 
2 | O=C(NC1CCCCC1)NC12CC3CC(CC(C3)C1)C2 [compound 192] |  | 50 ± 10 | 
3 | O=C(Nc1ccc(I)cc1)NC1CCCCC1 [compound 53] |  | 70 ± 10 | 120 ± 10
